# Literature values in paper PMC3729039 (Molecular cancer therapeutics, 2013).
# System: AR LBD
# Conditions: patients with CRPC post docetaxel treatment; cited from earlier work
smiles,measurement,value
CNC(=O)c1ccc(N2C(=S)N(c3ccc(C#N)c(C(F)(F)F)c3)C(=O)C2(C)C)cc1F [enzalutamide],median overall survival advantage compared to placebo,4.8 months
